According to patent publication US8877773B2, “Methods for treating chronic obstructive pulmonary disease” (Indiana University Research and Technology Corporation, priority 2009, dated 2014):
Entries after “also recorded” stand apart in the source; their conditions may differ.

Legend:
Assay type in all cases: in vivo, rat
c-Fos = c-Fos immunoreactive cell counts in brain regions after FG-7142 challenge; settings: FG-7142 7.5 mg/kg ip after vehicle (veh/FG) or SB334867 30 mg/kg ip (SB/FG); 90 min
Method: In this experiment, rats were split into 3 drug treatment groups (n=8/group), where the rats each received the following: group 1) a vehicle injection (0.2 ml DMSO in 100 g volume dH2O) followed by another vehicle (0.2 ml DMSO/0.1 ml TWEEN80 in 100 g volume dH2O) with injection; group 2) a vehicle injection followed by an inverse benzodiazepine agonist (FG-7142, 7.5 mg/kg ip, Sigma); or in group 3) an orexin 1 receptor antagonist (SB334867, 30 mg/kg ip, Tocris) followed by FG-7142. Fifteen min after the FG-7142 injection, all rats were tested for anxiety behavior using a 5 min open field test (OFT); 5 min social interaction (SI) test; then a 5 min elevated plus maze (EPM) test. Ninety min following FG-7142 injections, rats were anaesthetized and then the brains were removed and processed for immunohistochemistry as described in detail in subsequent section.
Ninety min following the initiation of treatment, rats were anaesthetised with an overdose of sodium pentobarbital (40 mg, i.p.) then perfused transcardially with 0.05 M phosphate buffered saline (PBS; 250 ml), followed by 0.1 M sodium phosphate buffer (PB; 250 ml) containing 4% paraformaldehyde (PFA) and 3% sucrose. Brains were removed and post-fixed for 24 h in the same fixative, rinsed for 24 h in 0.1 M PB, then placed in cryoprotectant (30% sucrose in 0.1 M PB) for an additional 4-5 days. To maintain a consistent plane for coronal sections, brains were placed in a rat brain matrix (ASI instruments, Model No. RBM-4000C) and cut with a razor blade at the caudal border of the mammillary bodies. Brains were frozen in cooled liquid isopentane made by immersing a plastic vessel containing isopentane into a dewar flask containing liquid nitrogen. Serial coronal sections (30 μm) were cut using a cryostat and were immediately placed in cryoprotectant consisting of 27% ethylene glycol and 16% glycerol in 0.05 M PB to yield six alternate sets of sections. Sections were stored at −20° C. until immunohistochemical processing.
All brain sections were immunostained with the c-Fos primary antibody in a single immunohistochemical run, rather than in batches, with large volume incubations to limit variability in the quality of immunohistochemical staining among brain sections. However, the forebrain was immunostained for c-Fos in one run and the brainstem (i.e., midbrain, pons and medulla) in another. Immunostaining for c-Fos protein was accomplished using an affinity-purified primary antibody directed at c-Fos (rabbit anti-human c-Fos polyclonal affinity-purified antibody, Cat. no. sc-52, Santa Cruz Biotechnology, San Diego, Calif.; diluted 1:10,000). Free-floating sections were washed in 0.1 M PBS for 30 min, then incubated in 1% H2O2 in PBS for 20 min. Sections were then washed 10 min in PBS and 20 min in PBS with 0.3% Triton X-100 (PBST). Sections were then incubated 12-16 h in PBST with primary antibody solution at room temperature. After a 30 min wash in PBST, sections were incubated for 2 hr in biotinylated goat anti-rabbit IgG (Cat no. BA-1000, Vector Laboratories, Burlinghame, Calif.; diluted 1:500). Sections were washed again for 30 min in PBST then incubated 1.5 hr in an avidin-biotin-peroxidase complex provided in a standard Vector Elite kit (Cat no. PK-6100, Vector Laboratories, diluted 1:200). The peroxidase substrate for the chromogen reaction was Vector SG, which was prepared as recommended by the manufacturer (Cat. no. SK-4700, Vector Laboratories). The substrate reaction was run for 20 min for the forebrain. All sections were mounted on clean glass slides, dried overnight, dehydrated and mounted with coverslips using DPX mounting medium (BDH Laboratory Supplies, Poole, UK). All washes and incubations were done at room temperature in 12-well polystyrene plates with low frequency shaking on an orbital shaker. […]

control rats = experiment: Baseline behavior and cardiovascular activity in control rats; settings: control rats (no 1-AG or NaLac), 30 mg/kg i.p., 30 min following injection
Method: In experiments 4-6, rats were made panic vulnerable with 1-AG. 5 days after 1-AG onset, in a counterbalanced design, rats received intraperitoneal (i.p.) injections of treatment drug or vehicle 30 min prior to i.v. infusions. In experiment 4, rats were injected with the ORX1 receptor antagonist SB334867 (N-(2-Methyl-6-benzoxazolyl)-N′-1,5-naphthyridin-4-yl urea) (30 mg/kg, Tocris, in 0.2 ml/100 g volume DMSO, n=12), alprazolam (3 mg/kg, Sigma, in 0.2 ml/100 g volume DMSO, n=6) or vehicle (0.2 ml/100 g volume DMSO, n=11) 30 min prior to a NaLac challenge and, immediately after, a SI test was used to assess anxiety behavior. In experiment 5, baseline in an open field (OF) behavior test of anxiety was assessed (n=8) prior to 1-AG infusions. […] In experiment 7, control rats (no 1-AG or NaLac treatment) were assessed in a SI test. 48 h later these rats received an i.p. injection of an ORX1 receptor antagonist (30 mg/kg SB334867, Tocris, in 0.2 ml/100 g volume DMSO, n=7) or vehicle (0.2 ml/100 g volume DMSO, n=7) and 30 min post injection cardiovascular activity was monitored for 20 min followed by an immediate SI test.
Adult male Sprague-Dawley rats were anesthetized and surgically implanted with telemetrical probes to measure cardiovascular activity prior to and during lactate infusions. […] Cardiovascular activity and SI tests were monitored 30 min following injection at similar time points.

[1] = test system: panic-prone (1-AG treated) rats; experiment: Sodium lactate (NaLac) challenge in panic-prone (1-AG treated) rats: social interaction (SI) test
Source text: The minipump was then sutured into place subcutaneously at the nape of the neck. The concentration of the solutions was such that 3.5 nmol/[…] per hour of 1-AG or d-AG was infused continuously into the DMH/PeF region for the remainder of the given experiment. In the case of the siRNA experiments specialized T-cannulae were implanted permitting access to a removable 28 g injector to direct siRNA injections to the same location as the 1-AG infusions. Additionally these rats had guide cannulae directed to the opposite DMH/PeF for bilateral infusion of siRNA.
(§1) Rats received intravenous (i.v.) infusions (10 ml over 15 min of either 0.5M NaLac or 0.9% isotonic saline (when applicable)) using a syringe pump at least five days following the initiation of 1-AG or d-AG infusions. Once a stable baseline was achieved, i.v. infusions began and cardiovascular and activity data were recorded for 15 min (similar to clinical NaLac infusions).
Another SI test was performed 5 days following minipump infusions and immediately following saline or sodium lactate infusions.
In experiment 3, an RNAase free environment was maintained throughout the injection procedure and all injectors, syringes and tubing were exposed to RNaseZAP and rinsed thoroughly with RNA-free water prior to siRNA injections. […] Rats with 1-AG minipumps and telemetric probes had siORX or siCON injected bilaterally through guide canulae opposite the 1-AG injector and through the minipump canulae ipislateral to 1-AG infusion. 48 hrs after siORX or siCON treatment, these rats were exposed to saline or NaLac infusions (siCon/Sal n=4, siORX/Sal n=6, siCON/Lac n=5, siORX/Lac n=6) and SI behavioral and cardiovascular responses were recorded, and were then sacrificed by rapid decapitation, following a brief (30 s) exposure to IsoFlurane® 1 hr after the intravenous infusions.
In experiments 4-6, rats were made panic vulnerable with 1-AG. […] In experiment 5, baseline in an open field (OF) behavior test of anxiety was assessed (n=8) prior to 1-AG infusions. […]

[2] = test system: panic-prone (1-AG treated) rats; experiment: Sodium lactate (NaLac) challenge in panic-prone rats: radio-telemetry of locomotor and cardiovascular (HR, MAP) responses
Method: Telemetry probes (Data Science International, St. Paul Minn.) were surgically implanted into the abdomen of anaesthetize rats to measure locomotor responses. Cardiovascular responses were measured by a femoral arterial line connected to the telemetric probe which contained a pressure transducer (Data Science International, St. Paul Minn.).
The minipump was then sutured into place subcutaneously at the nape of the neck. The concentration of the solutions was such that 3.5 nmol/[…] per hour of 1-AG or d-AG was infused continuously into the DMH/PeF region for the remainder of the given experiment. […]
as §1
Cardiovascular responses (i.e., MAP and HR) were measured by a femoral arterial line connected to a telemetric probe which contained a pressure transducer (Cat. no. C50-PXT, Data Science International (DSI) St. Paul Minn.). […] MAP and HR were recorded continuously in freely moving conscious rats and are expressed as a 20 min time course. […]

Cc1nc2ccc(NC(=O)Nc3ccnc4cccnc34)cc2o1 [SB334867, N-(2-Methyl-6-benzoxazolyl)-N′-1,5-naphthyridin-4-yl urea]
Mean number of c-Fos immunoreactive cells, Amygdala (−2.56 mm bregma) BLA (c-Fos): 6 ± 2 | Mean number of c-Fos immunoreactive cells, Amygdala (−2.56 mm bregma) LA (c-Fos): 6 ± 1 | Mean number of c-Fos immunoreactive cells, Amygdala (−2.56 mm bregma) MeA (c-Fos): 91 ± 21 | Mean number of c-Fos immunoreactive cells, DRN (−7.80 mm bregma) (c-Fos): 1 ± 0 | Mean number of c-Fos immunoreactive cells, ILC (+2.60 mm bregma) (c-Fos): 14 ± 8 | Mean number of c-Fos immunoreactive cells, IPBN (−9.30 mm bregma) (c-Fos): 10 ± 3 | Mean number of c-Fos immunoreactive cells, LC (−10.04 mm bregma) (c-Fos): 45 ± 9 | Mean number of c-Fos immunoreactive cells, LSI (+0.20 mm bregma) (c-Fos): 10 ± 4 | Mean number of c-Fos immunoreactive cells, PRL (+2.60 mm bregma) (c-Fos): 2 ± 0 | Mean number of c-Fos immunoreactive cells, PeF (−3.14 mm bregma) (c-Fos): 65 ± 20 | Mean number of c-Fos immunoreactive cells, mPBN (−9.30 mm bregma) (c-Fos): 2 ± 1 | SI duration (anxiety) in control rats (control rats): had no effect; also recorded: did not alter | duration of SI (anxiety-like behavior) after lactate challenge, injection into the BNST ([1]; 1-AG treated rats, unilateral 300 pmoles/100 nl into bed nucleus of the stria terminalis 30 min prior to lactate, vs vehicle): restored the duration of SI to normal baseline levels; also recorded: reduced the duration of SI; also recorded: reduced anxiety-like behavior | anxiety-like responses (social interaction (SI) duration) after NaLac challenge ([1]; panic-prone rats, i.p. 30 min prior to NaLac, SB334867/SB408124 30 mg/kg, alprazolam 3 mg/kg, experiments 4 and 6): attenuated | all lactate induced panic-like responses (SI, Activity, HR, MAP) ([1]; panic-prone rats, i.p. 30 min prior to lactate, SB334867 30 mg/kg, alprazolam 3 mg/kg): attenuated | general locomotor activity after NaLac challenge ([2]; 30 mg/kg i.p., experiment 5 (open field cohort)): No change was detected | NaLac induced increases in general locomotor activity ([2]; i.p. 30 min prior to NaLac, SB334867/SB408124 30 mg/kg, alprazolam 3 mg/kg, experiments 4 and 6): attenuated; also recorded: blocked
